Laboratory results from ChEMBL document CHEMBL4765381, “Neuropeptide FF and Its Receptors: Therapeutic Applications and Ligand Development” (J Med Chem, 2020).

Amino acid sequences for entries named in this document (tags omitted). A change or cut given only in a name is not applied to a line headed by its entry.
UniProt Q9Y5X5: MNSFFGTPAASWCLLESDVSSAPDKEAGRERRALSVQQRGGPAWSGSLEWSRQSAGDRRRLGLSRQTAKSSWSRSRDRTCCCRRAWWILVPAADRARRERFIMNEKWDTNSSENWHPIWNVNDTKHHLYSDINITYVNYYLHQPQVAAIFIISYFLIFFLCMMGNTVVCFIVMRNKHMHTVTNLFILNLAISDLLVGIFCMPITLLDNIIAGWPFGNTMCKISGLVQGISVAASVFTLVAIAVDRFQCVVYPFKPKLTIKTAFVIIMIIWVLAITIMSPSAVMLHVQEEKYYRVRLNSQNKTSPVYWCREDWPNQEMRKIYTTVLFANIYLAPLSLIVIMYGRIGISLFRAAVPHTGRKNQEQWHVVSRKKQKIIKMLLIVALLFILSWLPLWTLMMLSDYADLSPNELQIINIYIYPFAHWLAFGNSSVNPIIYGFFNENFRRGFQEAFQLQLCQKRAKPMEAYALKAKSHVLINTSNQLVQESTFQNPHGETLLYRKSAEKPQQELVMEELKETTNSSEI

How the values were obtained:
[1] = Binding affinity to NPFFR in rat spinal cord by competitive ligand binding assay; assay type: tissue-based
[2] = target: T1, Neuropeptide FF receptor 2 (Homo sapiens, UniProt Q9Y5X5); experiment: Displacement of [125I]EYF from human NPFFR2 expressed in CHO cell membranes; assay type: cell-based
[3] = target: T1, Neuropeptide FF receptor 2; experiment: Agonist activity at human NPFFR2 expressed in CHO cells assessed as inhibition of forskolin-induced intracellular cyclic cAMP accumulation; assay type: functional, cell-based

| SMILES | Ki [1] [µM] | Ki [2] [µM] | EC50 [3] [µM] |
| --- | --- | --- | --- |
| CSCC[C@H](NC(=O)[C@@H](N)Cc1ccccc1)C(=O)N[C@@H](CCCN=C(N)N)C(=O)N[C@@H](Cc1ccccc1)C(N)=O | 0.0018 | 0.0066 | 0.517 |
| N=C(N)NCCC[C@H](NC(=O)[C@H](CCC(N)=O)NC(=O)[C@@H]1CCCN1)C(=O)N[C@@H](Cc1ccccc1)C(N)=O | – | – | 0.309 |
